Target: T1, PDE9A (Homo sapiens, UniProt O76083)
T1 construct: they are full-length with N-terminal GST tag; GST (N); purchased BPS Biosciences 60090; host or cells: baculovirus infected Sf9 cells
Assay: PDE enzyme activity assay (HTRF cGMP), PDE9A
Type: biochemical
Conditions: recombinant enzyme; read-out: PDE9A inhibition (IC50)
Source text: The biochemical assay to measure PDE5A, PDE9A isoform b, PDE4D7, and PDE4A1 enzyme activities relies on the HTRF cGMP assay kit from CisBio (CisBio, Cat. #62GM2PEB), that determines the amount of cGMP present in the reaction. The enzymes were obtained from BPS Biosciences (GenBank Accession number for PDE5A: NM_001083, Cat. #60050; PDE9A: NM_001001567, Cat. #60090; PDE4D7: NM_001165899, Cat. #60047; and PDE4A1: U97584, Cat. #60040) and they are full-length with N-terminal GST tag. They were expressed in a baculovirus infected Sf9 cell expression system.
For each enzyme, enzyme activity assay was carried out in a 384-well plate in a final volume of 20 μL, as follows: • 2.5 μL of vehicle or studied compound 4× concentrated prepared in assay buffer containing 50 mM Tris-HCl, 6 mM MgCl2, pH 7.4 (PDE5A, PDE4D7, PDE4A1) and additionally 0.03% Tween-20 (PDE9A). Final percentage of DMSO was 0.5%. • 2.5 μL of PDE5A (7 μg/mL) or 2.5 μL PDE9A (0.2 μg/mL) or 2.5 μL PDE4D7 (1.25 μg/mL) or 2.5 μL PDE4A1 (1.5 μg/mL) diluted in assay buffer. […]
Fluorescence of each well was determined at 665 nm excitation and 620 nm emission using the plate reader EnVision (Perkin-Elmer). Results, Table 1 (below), were calculated from the 665 nm/620 nm ratio. […]

By UniProt entry, the sequences of proteins in these tests, tags left out. Residues count along the entry.
UniProt O76083, 1-533 isoform O76083-2: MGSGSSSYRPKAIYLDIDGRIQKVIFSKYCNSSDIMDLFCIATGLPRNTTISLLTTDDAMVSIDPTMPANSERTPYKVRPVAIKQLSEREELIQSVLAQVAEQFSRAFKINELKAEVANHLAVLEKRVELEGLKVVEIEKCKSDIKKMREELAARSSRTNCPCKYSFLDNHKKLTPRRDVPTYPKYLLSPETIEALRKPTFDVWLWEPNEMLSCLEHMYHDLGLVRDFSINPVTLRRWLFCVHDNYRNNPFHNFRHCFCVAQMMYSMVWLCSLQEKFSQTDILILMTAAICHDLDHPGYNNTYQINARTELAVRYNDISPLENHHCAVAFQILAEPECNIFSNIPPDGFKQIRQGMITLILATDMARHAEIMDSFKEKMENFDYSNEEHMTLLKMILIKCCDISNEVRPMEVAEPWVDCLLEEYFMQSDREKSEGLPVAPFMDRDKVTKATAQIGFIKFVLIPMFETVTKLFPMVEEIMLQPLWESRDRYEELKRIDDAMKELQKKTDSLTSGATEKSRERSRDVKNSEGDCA

`CCCc1nn(C)c2c(=O)[nH]c(-c3cc(S(=O)(=O)N4CCN(C)CC4)ccc3OCC)nc12` [Sildenafil, reference compound] showed an IC50 of 1 to 10 µM.

— patent US9969744B2, “Compounds for use in cognition improvement” (FUNDACIÓN PARA LA INVESTIGACIÓN MÉDICA APLICADA, priority 2014, dated 2018)
